Reference: PubChem BioAssay AID492953 (The Scripps Research Institute Molecular Screening Center, 2010)
The list shows a part of the results, in another mix than the full data. Active and inactive are the calls of the source.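 The calls were made as follows: active = inhibition above the mean of all tested compounds plus 3 SD (cut at about 24% in these data); inactive = the rest.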

Sequences of proteins named here, by UniProt entry; tags and fusion partners are left off.
UniProt P68402, whole entry: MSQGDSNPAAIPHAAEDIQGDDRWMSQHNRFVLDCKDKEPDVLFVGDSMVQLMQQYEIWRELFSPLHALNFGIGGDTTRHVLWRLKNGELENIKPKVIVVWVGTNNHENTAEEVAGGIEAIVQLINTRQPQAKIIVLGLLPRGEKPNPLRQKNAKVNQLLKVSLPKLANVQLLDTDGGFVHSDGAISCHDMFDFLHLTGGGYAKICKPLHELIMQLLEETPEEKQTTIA

Target: Platelet-activating factor acetylhydrolase IB subunit alpha2 (Homo sapiens) (UniProt P68402)
Experiment: inhibition of PAF acetylhydrolase 1b subunit 2 – biochemical, fluorescence polarization, human, primary screen (AID 492953);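 also: 0% = enzyme with DMSO and 100% = wells lacking PAFAH1B2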
Conditions: recombinant PAFAH1B2, FP-rhodamine activity probe, at 3.39 µM, stronger effect = higher value

Structure (SMILES) | inhibition
COc1ccc(OP(C)(=O)Nc2cccc(Br)c2)cc1 (centres undefined) | inactive: 0.69%
CN(C)CCOC(=O)C(O)(c1ccccc1)C1CCCCC1 (centres undefined) | inactive: -0.36%
COc1ccc(NP(C)(=O)Oc2ccccc2OC)cc1 (centres undefined) | inactive: 3.8%
O=[N+]([O-])c1ccc(OP2(=O)COCCO2)cc1 (centres undefined) | inactive: 3.27%
Cc1cc(-c2cccc3ccccc23)c(C)cn1.O=[N+]([O-])c1cc([N+](=O)[O-])c(O)c([N+](=O)[O-])c1 | inactive: 9.08%
O=[N+]([O-])c1cc([N+](=O)[O-])c(NCC2CCS(=O)(=O)C2)c([N+](=O)[O-])c1 (centres undefined) | inactive: -6.04%
Cc1c(C(c2ccc3c(c2)OCO3)c2c(C)n(C)n(-c3ccccc3)c2=O)c(=O)n(-c2ccccc2)n1C.O=[N+]([O-])c1cc([N+](=O)[O-])c(O)c([N+](=O)[O-])c1 | inactive: 4.53%
CCOC(=O)c1ccc(NP(C)(=O)Oc2ccc(Cl)cc2)cc1 (centres undefined) | inactive: 4.35%
CP(=O)(OC12CC3CC(CC(C3)C1)C2)OC12CC3CC(CC(C3)C1)C2 | inactive: 9.84%
CCN(CC)CC(O)COC(=O)C(O)(c1ccccc1)C1CCCCC1 (centres undefined) | inactive: 5.32%
COc1ccc(OP(C)(=O)Nc2ccc(Br)cc2)cc1 (centres undefined) | inactive: -0.04%
COc1ccccc1OP(C)(=O)Nc1c(C)n(C)n(-c2ccccc2)c1=O (centres undefined) | inactive: -0.13%
O=C(OCCCN1CCCC1)C(O)(c1ccccc1)C1CCCCC1 (centres undefined) | inactive: 0.79%
CP(=O)(Oc1ccccc1)N1CCOC1=O (centres undefined) | inactive: 5.72%
CCc1ccc(OP(C)(=O)Nc2cccnc2)cc1 (centres undefined) | inactive: -0.65%
COc1ccccc1OP(C)(=O)Nc1ccccc1Br (centres undefined) | inactive: 0.98%
CC(C)(C)c1ccc(OP(C)(=O)O)cc1 | inactive: 5.2%

Structure (SMILES) | inhibition
CP(=O)(Nc1ccc(Cl)cc1)Oc1ccc(F)cc1 (centres undefined) | inactive: 2.03%
CN(C)C(=O)c1c([N+](=O)[O-])cc([N+](=O)[O-])cc1[N+](=O)[O-] | inactive: -1.02%
COc1ccccc1OP(C)(=O)Nc1ccc(Br)cc1 (centres undefined) | inactive: -0.57%
COc1ccc(OP(C)(=O)Nc2ccccn2)cc1 (centres undefined) | inactive: -7.12%
CN(C)CCOC(=O)C(O)(c1ccccc1)C1CCCC1 (centres undefined) | inactive: -2.39%
Cc1c(NP(C)(=O)Oc2ccc(C(C)C)cc2)c(=O)n(-c2ccccc2)n1C (centres undefined) | inactive: -2.66%
O=[N+]([O-])c1cc([N+](=O)[O-])c(Nc2ccccn2)c([N+](=O)[O-])c1 | inactive: 6.86%
CP(=O)(Nc1ccccn1)Oc1ccccc1 (centres undefined) | inactive: 0.3%
COc1ccccc1OP(C)(=O)Nc1ccc(C)cc1C (centres undefined) | inactive: 3.36%
CCc1ccc(OP(C)(=O)O)cc1 | inactive: 2.14%
O=C1C(O)=C([N+](=O)[O-])C(=O)C(O)=C1[N+](=O)[O-] | inactive: 7.74%
Cc1cc(C)cc(OP(C)(=O)Nc2cccc(C(F)(F)F)c2)c1 (centres undefined) | inactive: 2.6%
COc1ccccc1OP(C)(=O)Nc1ccc(C)c(C)c1 (centres undefined) | inactive: 3.24%
COc1ccc(OP(C)(=O)Nc2ccccc2Br)cc1 (centres undefined) | inactive: 1.12%
CCCCCCCCCCCCCCCC1C[N+](C)(C)CCOP(C)(=O)O1 (centres undefined) | inactive: -2.72%
CP(=O)(Nc1ccc(Cl)cc1Cl)Oc1ccccc1 (centres undefined) | inactive: 3.12%
CP(=O)(OCCOc1ccccc1)OCCOc1ccccc1 | inactive: 2.18%
